# Only a part of the results on these compounds is given; other tests are left out.
# Assay: Miscibility of amines with water in the absence of CO2 (Example 5A)
# Details: 1 mL amine + 1 mL H2O, room temperature, visual
compound,measurement,value
OCCN(CCO)CCO,miscibility with water under air (absence of CO2),single-phase

# From patent US8900444B2, “Switchable hydrophilicity solvents and methods of use thereof” (Queen's University at Kingston, priority 2009, dated 2014)
